# In publication PMC10983004 (Journal of Medicinal Chemistry, 2024):
# Experiments:
# [1] = target: T1, TET2CDΔLCI (Homo sapiens, UniProt Q6N021); assay: biochemical; type: biochemical; conditions: for inhibition at 100 µM: read-out: AlphaScreen TET2CDΔLCI, % inhibition at 100 μM
# [2] = target: T1, TET2CDΔLCI; assay: biochemical; type: biochemical
# [3] = target: T1, TET2CDΔLCI; conditions: read-out: KM (2OG) TET2CDΔLCI (reported MS method); cited from earlier work
structure (smiles),measurement,setting,value
O=C(O)CNC(=O)c1c(O)c2ccccc2n(Cc2ccccc2)c1=O [IOX2],inhibition at 100 µM,[1],33%
same,IC50,[2],16.6 µM
CC(C)c1c(-c2ccccc2)[nH]c2c(C#N)cnn2c1=O [CPI455],"AlphaScreen TET2CDΔLCI, % inhibition at 100 μM",[1],N.I.
same,"SPE-MS TET2CDΔLCI, % inhibition at 100 μM","[2]; at 100 μM, incomplete dose–response curve, N.I. = no inhibition at 100 μM (<20%)",N.I.
CC(C)C(=O)NC(c1ccco1)c1ccc2cccnc2c1O (stereo not shown) [SD70],inhibition at 100 µM,[1],54%
same,inhibition at 100 µM,"[2]; read-out: SPE-MS TET2CDΔLCI, % inhibition at 100 μM",58%
"O.O.O=C([O-])CCC(=O)C(=O)[O-].[Na+].[Na+] [2OG, 2-oxoglutarate]",KMapp (2OG) TET2CDΔLCI,[1],4.9 ± 0.3 µM
same,KMapp (2OG) TET2CDΔLCI (SPE-MS),[2],3.0 ± 0.6 µM
same,Km,[3],15.7 ± 2.8 µM
Cc1nc(C(=O)NCC(=O)O)c(O)c2ccc(Oc3ccccc3)cc12 [Roxadustat],"AlphaScreen TET2CDΔLCI, % inhibition at 100 μM",[1],N.I.

# Read-outs that look alike come from different tables or passages of the source.
